# Experimental data as given in PubChem BioAssay AID1006 (Sanford-Burnham Center for Chemical Genomics, 2008).
# Sequences of proteins named here, by UniProt entry; tags and fusion partners are left off.
# UniProt P08659, whole entry, looked up: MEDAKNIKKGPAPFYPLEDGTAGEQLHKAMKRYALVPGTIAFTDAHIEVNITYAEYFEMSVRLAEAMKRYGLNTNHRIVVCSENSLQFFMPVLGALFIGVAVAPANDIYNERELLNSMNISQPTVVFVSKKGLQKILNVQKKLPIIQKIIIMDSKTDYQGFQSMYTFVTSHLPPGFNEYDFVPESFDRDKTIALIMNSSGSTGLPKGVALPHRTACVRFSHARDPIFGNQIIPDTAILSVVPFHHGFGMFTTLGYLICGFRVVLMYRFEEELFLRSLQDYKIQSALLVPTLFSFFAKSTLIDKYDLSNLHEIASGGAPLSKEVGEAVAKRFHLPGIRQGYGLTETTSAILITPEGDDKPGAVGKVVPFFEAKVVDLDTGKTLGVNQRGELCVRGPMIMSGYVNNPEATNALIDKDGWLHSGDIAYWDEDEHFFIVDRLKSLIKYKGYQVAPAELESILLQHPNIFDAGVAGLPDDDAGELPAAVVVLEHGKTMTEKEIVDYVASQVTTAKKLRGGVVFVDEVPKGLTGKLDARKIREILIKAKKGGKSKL
# The entries are a selection whose mix differs from that of the whole data set. The source made the active and inactive calls.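 The calls were made as follows: active = inhibition above about 50% when tested at 10 µM (limit read from the data); inactive = the rest.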
# Target: Luciferin 4-monooxygenase (Photinus pyralis) (UniProt P08659)
# Assay: firefly luciferase enzyme inhibitors, primary screen, artefact control for luciferase-based inhibitor screens, biochemical, luminescence, ATPLite (AID 1006)
# Details: 10 min, at 10 µM, stronger effect = higher value
row,SMILES,inhibition
1,CN1CCCCC1COC(=O)C1(O)c2ccccc2CCc2ccccc21 (stereo not given),inactive: -0.7%
2,COc1ccccc1OP(C)(=O)Nc1c(C)cccc1C (stereo not given),inactive: -6.5%
3,CCCOc1ccc(NP(C)(=O)Oc2ccc(Cl)cc2)cc1 (stereo not given),inactive: -4.9%
4,CP(=O)(Nc1ccc(SC(F)(F)F)cc1)Oc1ccccc1 (stereo not given),inactive: -0.6%
5,O=[N+]([O-])c1cc([N+](=O)[O-])c(-n2nnc3ccccc32)c([N+](=O)[O-])c1,inactive: -4.7%
6,Cc1nc2ccc3ccccc3c2s1.O=[N+]([O-])c1cc([N+](=O)[O-])c(O)c([N+](=O)[O-])c1,inactive: 0.7%
7,CCOC(=O)c1ccc(NP(C)(=O)Oc2cc(C)cc(C)c2)cc1 (stereo not given),inactive: -5.4%
8,Cc1cc(C)cc(OP(C)(=O)Nc2ccc(C)cc2C)c1 (stereo not given),inactive: -4.6%
9,Cc1ccc(C)c(NP(C)(=O)Oc2ccccc2)c1 (stereo not given),inactive: -4.4%
10,Cc1cc(C)cc(OP(C)(=O)Nc2ccccn2)c1 (stereo not given),inactive: -4.3%
11,CP(=O)(Nc1cccc(Br)c1)Oc1ccccc1 (stereo not given),inactive: -0.9%
12,CC1=NCCc2c1[nH]c1ccccc21.O=[N+]([O-])c1cc([N+](=O)[O-])c(O)c([N+](=O)[O-])c1,inactive: -4.3%
13,O=[N+]([O-])c1ccc2c(c1)C=Nc1ccccc1O2,inactive: -8.2%
14,Cc1cccc(C)c1OP(C)(N)=O (stereo not given),inactive: -2.2%
15,CC(C)(C)c1ccc(OP(C)(=O)Nc2ccc(SC(F)(F)F)cc2)cc1 (stereo not given),inactive: -6.6%
16,Cc1ccc(NP(C)(=O)Oc2ccccc2)c(C)c1 (stereo not given),inactive: 1.9%
17,COc1ccccc1OP(C)(=O)Nc1ccc(C)cc1 (stereo not given),inactive: -5.3%
18,CCOC(=O)c1ccc(NP(C)(=O)Oc2ccccc2)cc1 (stereo not given),inactive: -1.5%
19,Cc1cc(C)cc(OP(C)(N)=O)c1 (stereo not given),inactive: 2.6%
20,COc1ccc(OP(C)(=O)Nc2cccc(F)c2)cc1 (stereo not given),inactive: -2.3%
21,COc1ccccc1OP(C)(=O)Nc1cc(Cl)ccc1C (stereo not given),inactive: -2%
22,CCN(CC)CCCOC(=O)C(O)(c1ccccc1)c1ccccc1,inactive: -2.8%
23,CP(=O)(Oc1ccccc1)OC(c1ccccc1)C(F)(F)F (stereo not given),inactive: -5.1%
24,Cc1cccc(C)c1OP(C)(=O)Nc1ccc(SC(F)(F)F)cc1 (stereo not given),inactive: -6.2%

row,SMILES,inhibition
1,Cc1cc(C)cc(OP(C)(=O)Nc2ccc(SC(F)(F)F)cc2)c1 (stereo not given),inactive: -5.9%
2,CP(=O)(NC(=O)Nc1ccccc1)Oc1ccccc1 (stereo not given),inactive: -6.5%
3,CCOC(=O)c1ccc(NP(C)(=O)Oc2ccc(OC)cc2)cc1 (stereo not given),inactive: -8%
4,CCOP(C)(=S)SCC(=O)NC(C)C(=O)O (stereo not given),inactive: -1.7%
5,CP(=O)(Nc1ccccn1)Oc1ccc(Cl)cc1 (stereo not given),inactive: -2.9%
6,CP(=S)(Nn1cnnc1)Oc1ccccc1 (stereo not given),inactive: -6.1%
7,CP(=O)(Nc1ccccc1Br)Oc1ccccc1 (stereo not given),inactive: -3.4%
8,COc1ccccc1OP(C)(=O)Nc1ccccc1 (stereo not given),inactive: -3.8%
9,CCOC(=O)c1ccc(NP(C)(=O)Oc2ccc(Cl)cc2)cc1 (stereo not given),inactive: -2.6%
10,CP(=O)(OC12CC3CC(CC(C3)C1)C2)OC12CC3CC(CC(C3)C1)C2,inactive: -3.1%
11,COc1ccc(OP(C)(=O)Nc2ccc(Br)cc2)cc1 (stereo not given),inactive: -3.1%
12,CCN(CC)CC(O)COC(=O)C(O)(c1ccccc1)C1CCCCC1 (stereo not given),inactive: -8.5%
13,COc1ccccc1OP(C)(=O)Nc1c(C)n(C)n(-c2ccccc2)c1=O (stereo not given),inactive: -2.1%
14,CCc1ccc(OP(C)(=O)Nc2cccnc2)cc1 (stereo not given),inactive: -8.4%
15,CP(=O)(Oc1ccccc1)N1CCOC1=O (stereo not given),inactive: -6%
16,COc1ccccc1OP(C)(=O)Nc1ccccc1Br (stereo not given),inactive: -4.6%
17,CC(C)(C)c1ccc(OP(C)(=O)O)cc1,inactive: 0%
18,CP(=O)(Nc1ccc(Cl)cc1)Oc1ccc(F)cc1 (stereo not given),inactive: -7.8%
19,CN(C)C(=O)c1c([N+](=O)[O-])cc([N+](=O)[O-])cc1[N+](=O)[O-],inactive: -1.6%
20,COc1ccc(OP(C)(=O)Nc2ccccn2)cc1 (stereo not given),inactive: -4.8%
21,CN(C)CCOC(=O)C(O)(c1ccccc1)C1CCCC1 (stereo not given),inactive: -6.8%
22,Cc1c(NP(C)(=O)Oc2ccc(C(C)C)cc2)c(=O)n(-c2ccccc2)n1C (stereo not given),inactive: -2.8%
23,O=[N+]([O-])c1cc([N+](=O)[O-])c(Nc2ccccn2)c([N+](=O)[O-])c1,inactive: -2%
24,COc1ccccc1OP(C)(=O)Nc1ccc(C)cc1C (stereo not given),inactive: -5.2%

row,SMILES,inhibition
1,CP(=O)(Nc1ccccn1)Oc1ccccc1 (stereo not given),inactive: -3%
2,CCc1ccc(OP(C)(=O)O)cc1,inactive: -6.6%
3,Cc1cc(C)cc(OP(C)(=O)Nc2cccc(C(F)(F)F)c2)c1 (stereo not given),inactive: -4.3%
4,COc1ccccc1OP(C)(=O)Nc1ccc(C)c(C)c1 (stereo not given),inactive: -2.9%
5,COc1ccc(OP(C)(=O)Nc2ccccc2Br)cc1 (stereo not given),inactive: -6.1%
6,Cc1nc2ccc3ccccc3c2o1.O=[N+]([O-])c1cc([N+](=O)[O-])c(O)c([N+](=O)[O-])c1,inactive: 3.9%
7,CP(=O)(Nc1ccc(Cl)cc1Cl)Oc1ccccc1 (stereo not given),inactive: -3.7%
8,CP(=O)(OCCOc1ccccc1)OCCOc1ccccc1,inactive: -4.7%
9,CCOC(=O)c1ccc(NP(C)(=O)Oc2ccc(F)cc2)cc1 (stereo not given),inactive: 3%
10,COc1ccc(OP(C)(=O)Nc2ccc(SC(F)(F)F)cc2)cc1 (stereo not given),inactive: -7.4%
11,CCN(CC)CCCOC(=O)C(O)(c1ccccc1)C1CCCCC1 (stereo not given),inactive: -7.6%
12,CP(=O)(Nc1ccccc1)Oc1ccc(F)cc1 (stereo not given),inactive: -2.6%
13,CP(=O)(Nc1ccccc1F)Oc1ccccc1 (stereo not given),inactive: -11.6%
14,CC(C)c1ccc(OP(C)(=O)Nc2ccc(SC(F)(F)F)cc2)cc1 (stereo not given),inactive: -4.8%
15,O=C(OCCN1CCN(CCOCc2ccccc2)CC1)C(O)(c1ccccc1)c1ccccc1,inactive: -0.9%
16,CCOP(C)(=S)SCC(=O)NC(C)(CC)C(=O)O (stereo not given),inactive: -2.5%
17,CP(=O)(Nc1ccc2c(c1)OCCO2)Oc1ccccc1 (stereo not given),inactive: 0.2%
18,Cc1ccccc1NP(C)(=O)Nc1ccccc1C,inactive: -9.7%
19,COc1ccc(OP(C)(=O)Nc2cccc(Br)c2)cc1 (stereo not given),inactive: -7.4%
20,CN(C)CCOC(=O)C(O)(c1ccccc1)C1CCCCC1 (stereo not given),inactive: -1.6%
21,COc1ccc(NP(C)(=O)Oc2ccccc2OC)cc1 (stereo not given),inactive: -2.2%
22,O=[N+]([O-])c1cc([N+](=O)[O-])c(NCC2CCS(=O)(=O)C2)c([N+](=O)[O-])c1 (stereo not given),inactive: 3.8%
